The target of this test is UDPGT1A1 (Homo sapiens, UniProt P22309). The test can be described thus: Inhibition of bilirubin glucuronidation by UDPGT. Particulars: read-out: Apparent Ki; Table 4; bilirubin 0.1 mM as substrate. Format: biochemical. An excerpt: UDP-glucuronosyltransferase 1A1 isozenzyme (Cat. #U7254), uridine-5′-diphosphoglucuronic acid (UDPGA, #U5625), bilirubin (B), naringenin (N5893), octyl gallate (#48700) and quercetin (Q0125) were purchased from SigmaAldrich (St. Louis, Mo.). Bilirubin dimethyl ester (#B612-9), biliverdin dimethyl ester (#B610-9), biliverdin hydrocholoride (#B655-9), mesobilirubin (#M588-9), urobilin hydrochloride (#U590-1), and stercobilin hydrochloride (#S594-9) were purchased from Frontier Scientific Inc. (Logan, Utah).
The enzyme activity assay method was based on those of Adlard and Lathe (Biochem. J., 1970, 119:437-445). Incubation mixtures (total vol. 1.25 ml, pH 7.9) were prepared in tubes kept in ice and had the following composition: bilirubin (0.1 mM), UDP-glucuronic acid (0.25 mM), serum (5.8%, v/v), Mg2+ (5.0 mM), microsomal preparation (0.5-1.5 mg of protein), 10 mM tris-0.14 M KCl (pH 8.0), and 10% (v/v) dimethylsulphoxide. Incubation (10 min, 37° C.) was carried out with shaking (100 cycles/min). After incubation, tubes were placed in ice-water (5 min) and direct-reacting bilirubin was determined. All incubations were done in duplicate. Enzyme activity was expressed as μg of bilirubin conjugated/h per mg of protein. Differences from controls of more than 10% were regarded as significant.

Amino acid sequences for entries named in this document (tags omitted). Residues count along the entry.
UniProt P22309, 26-533 limits assumed: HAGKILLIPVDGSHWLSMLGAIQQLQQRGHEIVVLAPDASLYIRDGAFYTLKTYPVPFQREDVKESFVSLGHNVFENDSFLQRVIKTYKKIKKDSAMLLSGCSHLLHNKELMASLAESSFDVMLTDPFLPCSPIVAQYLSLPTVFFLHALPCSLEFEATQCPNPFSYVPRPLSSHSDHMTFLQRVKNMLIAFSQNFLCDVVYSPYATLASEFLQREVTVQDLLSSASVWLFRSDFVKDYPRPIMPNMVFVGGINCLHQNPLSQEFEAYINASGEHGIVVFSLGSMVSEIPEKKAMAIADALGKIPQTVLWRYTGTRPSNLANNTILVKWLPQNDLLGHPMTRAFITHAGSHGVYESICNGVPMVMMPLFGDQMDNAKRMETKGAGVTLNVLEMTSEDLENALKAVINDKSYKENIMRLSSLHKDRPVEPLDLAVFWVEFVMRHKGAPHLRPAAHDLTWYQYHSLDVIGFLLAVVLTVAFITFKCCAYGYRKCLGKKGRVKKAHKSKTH

The structures appear in SMILES notation. pKi: −log10 of the molar value.

In the case of `O=c1c(O)c(-c2ccc(O)c(O)c2)oc2cc(O)cc(O)c12`, the pKi is 5.35.

What is called pKi is the Ki on a negative log10 scale, so that one unit is a factor of ten.

For the origin of these results see patent publication US20080070971A1, “Medical Use of Bilirubin and its Structural Analogues” (priority 2006, published 2008).
